## Water solubility values, as collected for the OPERA models

Source: data files of OPERA 2.9 (Mansouri et al.), github.com/kmansouri/OPERA.

Solubility in water is on a log10 molar scale (set defined at 25 °C). "–" marks a cell with nothing listed here.

compound | name | log S (log10 mol/L)
Cl.ClCCCN1CCN(c2cccc(Cl)c2)CC1 | – | -1.9
N[C@@H]1C[C@H]1c1ccccc1 | Tranylcypromine | -1.951
CCC(N)P(=O)(O)O (centres undefined) | – | 0
CC1CC(=O)O1 (centres undefined) | beta-Butyrolactone | -0.343
CC1=CC(=O)N2CC(=O)N(C)c3ccc(Cl)cc3C2(c2ccccc2)O1 (centres undefined) | Ketazolam | -3.643
ClC1=C(Cl)C2(Cl)C3CC=CC3C1(Cl)C2(Cl)Cl (centres undefined) | Chlordene | -5.39
O=C(NC(=O)c1c(F)cccc1F)Nc1cc(Cl)c(OC(F)(F)C(F)C(F)(F)F)cc1Cl (centres undefined) | Lufenuron | -6.991
O=C1C[C@@H]2OCC=C3C[N+]4([O-])CC[C@]56c7ccccc7N1[C@H]5[C@H]2[C@H]3C[C@@H]64 (stereo partly drawn) | – | -1.275
Nc1c(Cl)c(Cl)c(Cl)c(Cl)c1Cl | Pentachloroaniline | -6.101
CCCCOC(=O)COC(=O)c1ccccc1C(=O)OCCCC | Butylphthalyl butylglycolate | -5.2
CCC(C)I (centres undefined) | 2-Iodobutane | -2.943
C=C(C)[C@]1(O)C2OC(=O)C1[C@]1(O)[C@H]3O[C@H]3[C@]3(CO3)[C@]1(C)C2O (some centres not stated) | Hyenanchin | -1.42
CCOP(=S)(OCC)SCSc1cc(Cl)ccc1Cl | Phenkapton | -6.932
CN1CC[C@]23c4c5ccc(O)c4O[C@H]2C(=O)CC[C@@]3(O)[C@H]1C5 | Oxymorphone | -1.071
OCC1C(CO)C2(Cl)C(Cl)=C(Cl)C1(Cl)C2(Cl)Cl (centres undefined) | – | -3.08
C=CC(=O)OCC(CC)(COC(=O)C=C)COC(=O)C=C | Trimethylolpropane triacrylate | -2.773
FC(F)C(F)(F)OCC(F)(F)F | (1H,1H-Perfluoroethyl)(2H-perfluoroethyl)ether | -3.26
CN(C)c1ccc(Cc2ccc(N(C)C)cc2)cc1 | 4,4'-Methylenebis(N,N-dimethylaniline) | -4.78
Nc1ccc(OP(=S)(Oc2ccc(N)cc2)Oc2ccc(N)cc2)cc1 | O,O,O-Tris(4-aminophenyl) phosphorothioate | -5.309
CC(C)CBr | 1-Bromo-2-methylpropane | -2.43
O=[N+]([O-])c1cc(Cl)cc(Cl)c1 | Benzene, 1,3-dichloro-5-nitro- | -3.584
CCCCC1(C)C(=O)NC(=O)NC1=O | 5-butyl-5-methylpyrimidine-2,4,6(1h,3h,5h)-trione | -2.042
Brc1c(Br)c(Br)c(Oc2c(Br)c(Br)c(Br)c(Br)c2Br)c(Br)c1Br | 1,1'-Oxybis[2,3,4,5,6-pentabromobenzene] | -9.979
Oc1ccc(O)c(Cl)c1 | Chlorohydroquinone | 0.805
CCc1cc2c(s1)N(C)C(=O)CN=C2c1ccccc1Cl | Clotiazepam | -4.774
O=[N+]([O-])Nc1ccccc1 | N-Nitroaniline | -2
COP(N)(=S)Oc1ccccc1C(=O)OC(C)C (centres undefined) | Isocarbophos | -3.62
CN1C(=O)CN=C(c2ccccc2F)c2cc(Cl)ccc21 | Fludiazepam | -4.323
O=S(=O)(O)C(F)(F)C(F)(F)C(F)(F)C(F)(F)C(F)(F)C(F)(F)F | Perfluorohexanesulfonic acid | -3.216
CNC(C)(C)Cc1ccccc1 | Mephentermine | -2.553
CC(=O)O[C@H]1CC[C@H]2[C@@H]3CCC4CC(=O)CC[C@]4(C)[C@H]3CC[C@]12C (stereo in doubt) | 17 beta-Acetoxy-5 alpha-androstan-3-one | -5.045
O=[N+]([O-])O[C@@H]1CO[C@H]2[C@@H]1OC[C@@H]2O | Isosorbide 5-mononitrate | -0.525
CC1=CC(=O)c2c(O)cccc2C1=O | 1,4-Naphthalenedione, 5-hydroxy-2-methyl- | -2.797
CNCC(C)c1ccccc1 (centres undefined) | – | -1.09
Cc1cc(OC(=O)N(C)C)nn1C(=O)N(C)C | Dimetilan | -0.062
N[C@@H](Cc1ccc(N(CCCl)CCCl)cc1)C(=O)O | Melphalan | -2.708
C[C@]12CCC(=O)C=C1CC[C@@H]1[C@@H]2C(=O)C[C@]2(C)C(=O)CC[C@@H]12 | – | -3.48
ClC1=C(Cl)C2(Cl)C3C(Cl)OC(Cl)C3C1(Cl)C2(Cl)Cl (centres undefined) | Isobenzan | -6.64
CCCCC(CC)COC(=O)OOC(C)(C)C (centres undefined) | OO-tert-butyl O-(2-ethylhexyl) peroxycarbonate | -4.66
FC(F)OCC(F)(F)F | Difluoromethyl 2,2,2-trifluoroethyl ether | -2.135
O=S(=O)([O-])C(F)(F)C(F)(F)C(F)(F)C(F)(F)C(F)(F)C(F)(F)C(F)(F)C(F)(F)F.[K+] | Potassium perfluorooctanesulfonate | -3.361
O=C(O)C(Cl)(Cl)CCl | Chloropon | -1.75
CCCCC(Br)C(=O)NC(N)=O (centres undefined) | N-(Aminocarbonyl)-2-bromohexanamide | -2.856
CCCCCCCCCCCCOC(=O)c1ccccc1C(=O)OCCCCCCCCCCCC | Didodecyl phthalate | -6.555
S=C=Nc1ccc(Br)cc1 | 4-Bromophenylisothiocyanate | -0.268
Oc1cc(Cl)c(Cl)c(Cl)c1 | 3,4,5-Trichlorophenol | -3.489
OC(=NCCc1ncc(C(F)(F)F)cc1Cl)c1ccccc1C(F)(F)F | Fluopyram | -4.42
CCC(=O)NC(=O)CCl | N-(Chloroacetyl)propanamide | -2.096
COC1=CC=C2[C@H]3Cc4ccc(OC)c5c4[C@@]2(CCN3C)[C@H]1O5 | Thebaine | -2.66
CCc1cc(Cc2cc(CC)c(N)c(CC)c2Cl)c(Cl)c(CC)c1N | Benzenamine, 4,4'-methylenebis[3-chloro-2,6-diethyl- | -7.278
CC(C)(C)OOC(=O)/C=C\C(=O)O | (2Z)-1-(1,1-Dimethylethyl) 3-carboxy-2-propeneperoxoate | -2.64

Excerpt, the final 8 entries:

compound | name | log S (log10 mol/L)
CCCCCCCCCCCCOC(=O)c1ccccc1C(=O)OCCCCCCCCCCCC | Didodecyl phthalate | -6.555
S=C=Nc1ccc(Br)cc1 | 4-Bromophenylisothiocyanate | -0.268
Oc1cc(Cl)c(Cl)c(Cl)c1 | 3,4,5-Trichlorophenol | -3.489
OC(=NCCc1ncc(C(F)(F)F)cc1Cl)c1ccccc1C(F)(F)F | Fluopyram | -4.42
CCC(=O)NC(=O)CCl | N-(Chloroacetyl)propanamide | -2.096
COC1=CC=C2[C@H]3Cc4ccc(OC)c5c4[C@@]2(CCN3C)[C@H]1O5 | Thebaine | -2.66
CCc1cc(Cc2cc(CC)c(N)c(CC)c2Cl)c(Cl)c(CC)c1N | Benzenamine, 4,4'-methylenebis[3-chloro-2,6-diethyl- | -7.278
CC(C)(C)OOC(=O)/C=C\C(=O)O | (2Z)-1-(1,1-Dimethylethyl) 3-carboxy-2-propeneperoxoate | -2.64

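These are experimental values that the OPERA curators gathered from public databases to train and test their QSAR models. One number stands for a compound and property, with no spread given. Conditions of the individual experiments are not part of the data. A value may pool stereoisomers or salt forms, and the file does not say which form was measured. Some upstream entries may be estimates or bounds without being marked so.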